# In publication PMC7723054:
# Some of the results follow.
# T1: LIN28A (human?, UniProt Q9H9Z2 1-209)
# T1 sequence: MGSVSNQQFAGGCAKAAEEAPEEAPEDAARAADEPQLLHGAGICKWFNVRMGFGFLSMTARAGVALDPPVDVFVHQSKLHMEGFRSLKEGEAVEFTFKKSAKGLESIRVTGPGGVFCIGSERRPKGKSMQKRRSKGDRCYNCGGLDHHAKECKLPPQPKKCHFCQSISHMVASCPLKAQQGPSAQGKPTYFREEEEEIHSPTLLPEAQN
# T2: CIRBP (Homo sapiens, UniProt Q14011 1-172)
# T2 sequence: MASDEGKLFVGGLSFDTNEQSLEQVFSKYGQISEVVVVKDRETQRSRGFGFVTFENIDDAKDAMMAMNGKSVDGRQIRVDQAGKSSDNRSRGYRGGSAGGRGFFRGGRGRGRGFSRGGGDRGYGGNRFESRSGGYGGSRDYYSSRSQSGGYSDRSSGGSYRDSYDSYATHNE
# T3: DHX36 (Homo sapiens, UniProt Q9H2U1 1-1008)
# T3 sequence: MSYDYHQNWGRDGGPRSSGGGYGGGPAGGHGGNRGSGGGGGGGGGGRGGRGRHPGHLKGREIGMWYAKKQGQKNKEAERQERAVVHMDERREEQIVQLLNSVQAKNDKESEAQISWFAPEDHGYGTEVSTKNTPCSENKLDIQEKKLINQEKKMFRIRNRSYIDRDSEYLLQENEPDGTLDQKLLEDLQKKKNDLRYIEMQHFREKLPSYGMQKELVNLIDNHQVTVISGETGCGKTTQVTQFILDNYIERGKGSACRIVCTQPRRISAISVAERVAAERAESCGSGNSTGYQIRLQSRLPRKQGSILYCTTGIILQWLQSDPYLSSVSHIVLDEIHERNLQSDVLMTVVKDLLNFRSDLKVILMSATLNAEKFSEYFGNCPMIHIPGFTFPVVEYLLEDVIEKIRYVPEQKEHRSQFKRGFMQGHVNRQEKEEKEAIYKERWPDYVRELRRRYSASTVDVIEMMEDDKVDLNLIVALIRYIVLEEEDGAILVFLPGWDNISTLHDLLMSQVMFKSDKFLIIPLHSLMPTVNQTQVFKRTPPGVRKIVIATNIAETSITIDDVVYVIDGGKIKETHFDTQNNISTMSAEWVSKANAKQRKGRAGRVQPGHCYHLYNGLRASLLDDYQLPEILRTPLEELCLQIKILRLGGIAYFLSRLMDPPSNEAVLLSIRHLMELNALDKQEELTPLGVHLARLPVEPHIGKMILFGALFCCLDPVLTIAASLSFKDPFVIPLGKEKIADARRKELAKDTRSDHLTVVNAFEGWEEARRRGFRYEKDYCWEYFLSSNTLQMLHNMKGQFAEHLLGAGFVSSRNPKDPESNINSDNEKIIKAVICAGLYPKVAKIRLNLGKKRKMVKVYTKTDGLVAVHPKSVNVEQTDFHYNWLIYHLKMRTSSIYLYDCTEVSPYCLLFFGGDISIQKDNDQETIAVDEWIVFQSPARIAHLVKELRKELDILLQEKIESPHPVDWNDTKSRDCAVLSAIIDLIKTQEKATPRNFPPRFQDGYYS
# Legend:
# Assay in all cases: FOREST: bead pull-down of RNA structure library v1, barcode microarray; U1A/LIN28A: 20 mM HEPES pH 7.5, 80 mM KCl, 20 mM NaCl, 10% glycerol, 2 mM DTT, 0.1 ug/uL BSA, 4 C; BG4/CIRBP/DHX36: 10 mM Tris-HCl pH 7.5, 100 mM KCl (or LiCl),; high values mean tight binding
# [1] = molecular target: U1A (Homo sapiens, UniProt P09012)
# [2] = molecular target: T1, LIN28A
# [3] = molecular target: T2, CIRBP
# [4] = molecular target: T3, DHX36
Binder,binding signal [1] [z-score],binding signal [2] [z-score],binding signal [3] [z-score],binding signal [4] [z-score]
hsa-mir-4277 (structured_RNA) RNA: GGGAAAGACCCUCAGUGAUCGGUAGAGAGGUGUACGAAGUUUCAGCACACUGGGCUGCCCCCACUGCCCAGUGCGCUGAAGCUUCGUGCAC,0.441,-3.44,-3.23,-1.75
hsa-mir-1915 (structured_RNA) RNA: GGGACCCGCUGUAAAUGUUCGGGGUUUUGGUGUACGAAGUUUCAGCGGGCCGUGCACCCGUGGGCCCCGCUGAAGCUUCGUGCAC,2.1,-0.132,-1.14,-0.872
hsa-mir-365a (structured_RNA) RNA: GGGAGUAUCACCAUAAUGGCAUUGGUCGGGUGUACGAAGUUUCAGCAGAUGUGUUUCCAUUCCACUAUCAUAAUGCUGAAGCUUCGUGCAC,0.44,0.218,0.25,1.17
hsa-mir-3907 (structured_RNA) RNA: GGGCGUAUUGUGCUUACAUCGCAGACGUGGUGUACGAAGUUUCAGCGCCUGCCCUGAGUCCCCCAGCAGGUGCUGAAGCUUCGUGCAC,0.439,-0.88,-1.48,0.0669
hsa-mir-105-2 (structured_RNA) RNA: GGGACAUCCGAGACCACCACGGUUAAGUGGUGUACGAAGUUUCAGCCUGUGGUGGCUGCUUAUGCACCACGGGCUGAAGCUUCGUGCAC,0.437,-0.598,-0.196,-0.234
hsa-mir-6764 (structured_RNA) RNA: GGGAAUACUAAGAUGGUAUCGAGCCACAGGUGUACGAAGUUUCAGCGAGUUGCUGAGUGGGUUGAUCUCGCUGAAGCUUCGUGCAC,0.435,1.1,3,0.718
hsa-mir-5088 (structured_RNA) RNA: GGGAACAUUAAGGUAUGAACCCGCCAGAGGUGUACGAAGUUUCAGCUGGAGGUGAUGGGGGCAGGGGAUGGGUCUCACCCUCCCGCUGAAGCUUCGUGCAC,0.431,1.04,2.11,3.77
hsa-mir-6808 (structured_RNA) RNA: GGGAGUCGUAGACCUCGGGACCGAUACAGGUGUACGAAGUUUCAGCCCAUGGGGGCCUUGCUGUGUGCUGAAGCUUCGUGCAC,0.43,0.49,0.647,0.0951
hsa-mir-3118-1 (structured_RNA) RNA: GGGAAAGCCCGAUAAGGACAACCGAUCGGGUGUACGAAGUUUCAGCCACACACAAUCACCAUGUGGCUGAAGCUUCGUGCAC,0.427,-0.643,-0.46,-0.6
hsa-mir-302d (structured_RNA) RNA: GGGAGAGGGGCCAUCAAAACUUAGAGGAGGUGUACGAAGUUUCAGCCUUGCUGUGACAUGACAAAAAUAAGGCUGAAGCUUCGUGCAC,0.42,0.373,-0.479,-0.621
hsa-mir-4461 (structured_RNA) RNA: GGGAAAACAGCGUACCGCCACUAGAAGGGGUGUACGAAGUUUCAGCAGGCCAUACGUGUUGGAGAUUGCUGAAGCUUCGUGCAC,0.42,0.462,0.474,0.686
hsa-mir-4467 (structured_RNA) RNA: GGGAACCGGCAGGUCUCAGCUAUAACUAGGUGUACGAAGUUUCAGCGCUUCUCUUUCUCACCAGCAGCGCUGAAGCUUCGUGCAC,0.419,-0.71,-0.898,-1.46
